Data from US6974816B2, “Combination for the treatment of endothelial damage” (Licentia Ltd., priority 2001, dated 2005).

Details: rabbit, in vivo

Cc1ccc(NC(=O)c2ccc(CN3CCN(C)CC3)cc2)cc1Nc1nccc(-c2cccnc2)n1 [STI571, N-{5-[4-(4-methyl-piperazino-methyl)-benzoylamido]-2-methylphenyl}-4-(3-pyridyl)-2-pyrimidine-amine]
weight: 2618 ± 124 g
